Assay: density and max drug loading of antimicrobial agents considered for carrier particles
Assay type: physicochemical
Conditions: Table 7

Which Density does the source give for Cefoperazone-sulbactam here?
Its Density is 1.8 g/mL.
